# According to patent US20120230918A1, “NON-INVASIVE IN VIVO OPTICAL IMAGING METHOD” (Hoffmann-La-Roche Inc., priority 2009, published 2012):
# Assay: Biacore binding characteristics of labeled versus non-labeled Herceptin
substance,measurement,value
Cy5-labeled Herceptin: Herceptin labeled with Cy5,binding characteristics compared to non-labeled Herceptin (Biacore),same binding characteristics
